Rce1 inh – blocks yeast Ras-converting enzyme | Q03530 | calls only | yeast membranes, quenched prenylated peptide cleavage fluorescence | actives 0.27% (n = 290,000);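 active means fall in fluorescence gain of 50% or more versus controls, with final raw signal at or below 3038400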;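 further: plate controls were neutral control wells for no effect and wells lacking membranes for full effect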
DSG3 Ab inh – blocks pemphigus antibody binding to human desmoglein-3; P32926; DSG3-coupled beads, scFv-anti-DSG3-GFP binding, flow cytometry; stronger effect = lower value; binding (percent of control), % at 10 µM; actives 0.48% (n = 310,000);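 active means binding more than 3 SD below its plate's average and above zero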;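 further: hits lower antibody fragment binding to DSG3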
TbMetRS inhib – blocks T. brucei methionyl-tRNA synthetase activity | purified T. brucei MetRS, ATP depletion, Kinase-Glo luminescence | actives 0.4% (n = 360,000) | inhibition, % at 11.9 µM;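 active means inhibition above a per-plate cutoff of the control wells' mean inhibition plus 3 SD, cut at about 5.5% in these data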;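 further: 0% = DMSO wells median and 100% = median of wells with control inhibitor compound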
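Test system – parasite MetRS enzyme · Reagent – substrates ATP, L-methionine and bulk Escherichia coli tRNA · Doses – 11.9 µM compound single dose, 0.9% DMSO · Times – 15 min enzyme-compound preincubation, 2 h reaction, 10 min detection, 25 °C · Signal – Kinase-Glo luminescence, ATP depletion format · Controls – DMSO-only wells as low control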
Arr AP2 block – inhibitors of human beta-arrestin and AP2 interaction; inhibition, % at 10 µM; actives 0.31% (n = 340,000); AID 504490; FITC-arrestin peptide / GST-AP2 beads, flow cytometry; AP2 beta2 appendage carries R879A mutation;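 active means inhibition above a set limit, near 3 SD of compounds lacking own fluorescence, cut at about 54% in these data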;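 further: plate controls were DMSO wells for no effect and 5 µM unlabelled arrestin peptide for full effect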
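Test system: GST-tagged AP2 beta2-adaptin appendage (R879A) on 4 µm glutathione beads; also added: fluorescein-tagged arrestin peptide at 50 nM final; timing: 12 min plus 1 h, RT; signal: flow cytometry, FL1 (488/535 nm); read-out: percent drop in bead-associated FITC signal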
UUG fidelity – alters start codon recognition fidelity in yeast. S. cerevisiae UUG-firefly luciferase reporter, luminescence/redox ratio. activity score, % at 18.7 µM. 0.13% of 350,000 active. AID 602363;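 active = replicate mean at a twofold rise or more, about +100% in these data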;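 also: firefly luciferase made from a UUG start codon reports start codon fidelity; reporter light over untreated wells divided by growth signal over untreated wells; some hits fall short of that in this replicate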
Tb MetRS conf – confirmation of Trypanosoma brucei MetRS inhibitors; shares compounds with TbMetRS inhib; T. brucei MetRS enzyme, luminescence (ATP depletion); inhibition, % at 11.9 µM; actives 93% (n = 1,400); in the data active means inhibition above about 7%
Jurkat cytotox – kills Jurkat cells in T. brucei MetRS counterscreen | AID 624413 | Jurkat cells viability, ATP luminescence | inhibition, % at 8.3 µM | actives 12% (n = 1,400) | shares compounds with TbMetRS inhib; in the data active means inhibition above about 15%;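 further: 0% = vehicle and 100% = reference inhibitor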
TbMetRS FP orth – T. brucei MetRS inhibition, orthogonal assay; shares compounds with TbMetRS inhib; purified T. brucei MetRS, fluorescence polarization; inhibition, % at 11.9 µM; actives 44% (n = 1,400); AID 651607; in the data active means inhibition above about 17%;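 further: 0% = vehicle wells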
Active calls of the source: *. An excerpt weighted towards active compounds, which were near 1.2% of everything screened.

Screening C[C@@H]1C=C(C(=O)NCc2nc3ccccc3[nH]2)O[C@H](OCCCCO)C1 returned Rce1 inh inactive, DSG3 Ab inh 97.1, TbMetRS inhib 4.4, Arr AP2 block 33.0 and UUG fidelity -14.1.
C[C@@H]1C=C(C(=O)NCc2nc3ccccc3[nH]2)O[C@H](OCc2ccc(CO)cc2)C1 was read as Rce1 inh inactive, DSG3 Ab inh 103.3, TbMetRS inhib 69.1*, Arr AP2 block 28.0, UUG fidelity -3.5, Tb MetRS conf 95.9*, Jurkat cytotox 5.8 and TbMetRS FP orth 72.0*.
`O=C(NCc1nc2ccccc2[nH]1)C1=C[C@@H](c2csc3ccccc23)C[C@@H](OCCCCO)O1` gave Rce1 inh inactive, DSG3 Ab inh 101.3, TbMetRS inhib 72.2*, Arr AP2 block 9.1, UUG fidelity -23.0, Tb MetRS conf 100.9*, Jurkat cytotox -4.8 and TbMetRS FP orth 77.2*.
O=C(NCc1nc2ccccc2[nH]1)C1=C[C@H](c2ccc(C(F)(F)F)cc2)C[C@H](OCc2ccc(CO)cc2)O1 was read as Rce1 inh inactive, DSG3 Ab inh 96.3, TbMetRS inhib 18.1*, Arr AP2 block -1.0, UUG fidelity -18.1, Tb MetRS conf 48.5*, Jurkat cytotox -2.9 and TbMetRS FP orth 30.1*.
O=C(C[C@@H]1C=C[C@@H](NC(=O)C2CC2)[C@@H](CO)O1)NCc1ccncc1 was read as UUG fidelity -2.5.
For O=C(Nc1ccccc1)C1=C[C@@H](c2ccc(Br)cc2)C[C@@H](OCc2ccc(CO)cc2)O1 the results were Rce1 inh inactive, DSG3 Ab inh 103.6, TbMetRS inhib 0.3, Arr AP2 block 46.9 and UUG fidelity 1.9.
`O=C(NCc1nc2ccccc2[nH]1)C1=C[C@H](c2ccc(Br)cc2)C[C@H](OCc2ccc(CO)cc2)O1` gave Rce1 inh inactive, DSG3 Ab inh 95.0, TbMetRS inhib 65.9*, Arr AP2 block 10.7, UUG fidelity -14.6, Tb MetRS conf 98.2*, Jurkat cytotox -3.5 and TbMetRS FP orth 74.6*.
`CC(C)NC(=O)N1CCCCN2[C@@H](CO)[C@H](c3ccc(C#CC4CC4)cc3)[C@@H]2C1` gave UUG fidelity 10.7.
C=CCN1Cc2ccccc2[C@H]2OC(c3ccc(OCCCO)cc3)=N[C@@]2(CCC(=O)OC(C)(C)C)C1=O was read as UUG fidelity -1.1.
`CC(=O)Oc1ccc(/C=C(\NC(=O)c2cccc(Br)c2)C(=O)Nc2ccc(C(=O)O)cc2)cc1` gave Rce1 inh inactive, DSG3 Ab inh 101.1, TbMetRS inhib 6.2*, Arr AP2 block 3.3, UUG fidelity -14.8, Tb MetRS conf 12.0*, Jurkat cytotox -2.0 and TbMetRS FP orth 10.2.
For Cc1ccc(NC(=O)/C(=C/C=C/c2ccccc2)NC(=O)c2ccccc2)cc1 the results were Rce1 inh inactive, DSG3 Ab inh 97.3, TbMetRS inhib 0.2 and Arr AP2 block 2.8.
For O=C(Nc1ccc(C(=O)O)cc1)/C(=C\C=C\c1ccccc1)NC(=O)c1ccc(Br)cc1 the results were Rce1 inh inactive, DSG3 Ab inh 104.7, TbMetRS inhib 21.3*, Arr AP2 block 13.3, UUG fidelity -11.3, Tb MetRS conf 39.6*, Jurkat cytotox 1.2 and TbMetRS FP orth 38.8*.
COc1ccc(N2CCN(C(=O)c3ccccc3Br)CC2)c([N+](=O)[O-])c1 was read as Rce1 inh inactive, DSG3 Ab inh 98.3, TbMetRS inhib 14.2*, Arr AP2 block 36.5, Tb MetRS conf 30.1*, Jurkat cytotox 2.1 and TbMetRS FP orth 17.6*.
Screening COc1ccc(N2CCN(C(=O)c3ccccc3)CC2)c([N+](=O)[O-])c1 returned Rce1 inh inactive, DSG3 Ab inh 91.3, TbMetRS inhib 8.2*, Arr AP2 block 10.4, UUG fidelity -3.6, Tb MetRS conf 9.3*, Jurkat cytotox 5.6 and TbMetRS FP orth 10.0.
`COc1ccc(-c2cn(CC[C@@H]3CC[C@@H](NC(=O)Cc4ccccn4)[C@@H](CO)O3)nn2)cc1` gave UUG fidelity 0.1.
NC(=S)NNc1cc(Cl)cc(Cl)c1 was read as Rce1 inh inactive, DSG3 Ab inh 96.9, TbMetRS inhib 8.1*, Arr AP2 block 7.0, UUG fidelity -17.2, Tb MetRS conf 17.6*, Jurkat cytotox 1.0 and TbMetRS FP orth 9.9.
`NC(=S)Nc1cc(Cl)cc(Cl)c1` gave Rce1 inh inactive, DSG3 Ab inh 85.2, TbMetRS inhib 0.3, Arr AP2 block 15.2 and UUG fidelity -26.3.
`Cc1ccc(S(=O)(=O)/C(C#N)=C/c2c[nH]c3ccccc23)cc1` gave Rce1 inh inactive, DSG3 Ab inh 104.0, TbMetRS inhib 19.1*, Arr AP2 block -5.3, Tb MetRS conf 39.8*, Jurkat cytotox -1.0 and TbMetRS FP orth 23.5*.
`Cc1cc(Cn2nc(-c3ccccc3)cc2C(=O)NCc2cccc(Br)c2)on1` gave Rce1 inh inactive, DSG3 Ab inh 98.5, TbMetRS inhib 54.0*, Arr AP2 block 32.6, UUG fidelity -14.7, Tb MetRS conf 83.8*, Jurkat cytotox -4.3 and TbMetRS FP orth 67.6*.
`CC1(C)CC(N2CCN(CCO)CC2)=CC(=S)N1` gave Rce1 inh inactive, DSG3 Ab inh 101.5, TbMetRS inhib 6.2*, Arr AP2 block 5.7, UUG fidelity -23.0, Tb MetRS conf 3.4, Jurkat cytotox -0.1 and TbMetRS FP orth -3.5.
For CC1(C)CC(NCc2ccccc2)=CC(=S)N1 the results were TbMetRS inhib 0.1.
CC(=O)N(C)C[C@H]1Oc2cc(-c3cncnc3)ccc2S(=O)(=O)N([C@@H](C)CO)C[C@H]1C was read as UUG fidelity -15.1.
For CCCC(=O)N1C[C@H]2[C@@H](c3ccccc31)[C@H](CO)N2C(=O)CC1CC1 the results were UUG fidelity -4.7.
For Nc1ccc2c(c1)C(=O)C(=O)c1ccccc1-2 the results were Rce1 inh inactive, DSG3 Ab inh 94.9, TbMetRS inhib 21.9*, Arr AP2 block 25.0, Tb MetRS conf 15.4*, Jurkat cytotox 97.2* and TbMetRS FP orth 2.7.
Screening O=C(CCc1nc2ccccc2c(=O)[nH]1)OCCOc1ccc(Cl)cc1 returned Rce1 inh inactive, DSG3 Ab inh 96.3, TbMetRS inhib 16.2*, Arr AP2 block -0.9, UUG fidelity 8.3, Tb MetRS conf 30.1*, Jurkat cytotox 4.5 and TbMetRS FP orth 18.7*.
For CC(=O)N[C@@H]1CC[C@@H](CC(=O)NCC2CCCCC2)O[C@H]1CO the results were UUG fidelity -33.8.
